This note sets out measurements from patent US20240300972A1, “THIOPHENE-BASED LIPIDS” (Oregon State University, priority 2021, published 2024).

In data set [1] the test system is HeLa (human cervical epithelial cells).
Data set [2] deals with HeLa, HEK293T/17, HepG2, Jurkat E6-1 cell lines.

Take “6-(3-(dimethylamino)propanoyl)-2-((9Z,12Z)-octadeca-9,12-dienamido)-N-((9Z,12Z)-octadeca-9,12-dienoyl)-N-octadecyl-4,5,6,7-tetrahydrothieno[2,3-c]pyridine-3- [26a]”: the “transfection profile and cytotoxicity” value in data set [1] is “favorable transfection profile and cytotoxicity”. In data set [2], this substance returned a Cell viability above 60%.
